AlphaSeq binding of Ab-14 light chain variants to a spike HR2 peptide

All variants were tested on one target, the spike HR2 peptide PDVDLGDISGINAS (SARS-CoV-2).

The variants keep the heavy chain, the linker and the frameworks of Ab-14 (scFv order VH, a 15-residue (Gly4Ser)3 linker, VL).
VH: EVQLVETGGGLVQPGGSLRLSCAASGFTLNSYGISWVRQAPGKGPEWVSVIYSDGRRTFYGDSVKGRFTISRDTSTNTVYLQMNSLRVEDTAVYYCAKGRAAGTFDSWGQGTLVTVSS
VL: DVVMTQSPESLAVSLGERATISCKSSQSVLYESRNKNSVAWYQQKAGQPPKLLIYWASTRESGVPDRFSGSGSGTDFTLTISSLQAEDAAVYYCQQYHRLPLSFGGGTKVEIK

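Phage display of a naive human antibody library on the peptide gave the parent. The library (AAYL50) carries one to three amino acid substitutions per variant, with no insertions or deletions. Affinity was read by AlphaSeq, a pooled yeast mating assay with surface-displayed partners. After mating in shaken culture at 30 °C for 16 h, diploids were selected and their barcode pairs sequenced. A regression on co-assayed BCL2-family reference pairs converts the normalised counts of each replicate to an apparent Kd. There are three technical replicates.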

Substitutions are numbered in sequence along the VL above, starting at 1 (not Kabat).
Values are log10 of the apparent Kd in nM; lower means stronger binding.
Averages over replicates are reported, and they cover detected replicates only.
An entry "nd" has no value in the source: the pair was not observed among the diploids in any replicate. This suggests poor binding but is not conclusive.

changes,mean log10 Kd (nM),detected,signal with controls
Y31Q/P101N/L102C,nd,0 of 3,1 of 9
S33L/N35E/T59M,0.71,3 of 3,0 of 9
Q27N/Q96A/R99K,1.01,3 of 3,2 of 9
R34M/S38E/L100W,3.20,2 of 3,1 of 9
V29S/N37S/H98N,1.64,3 of 3,4 of 9
Q27P/E32R/V39K,nd,0 of 3,0 of 9
S33R/R60L,2.14,3 of 3,4 of 9
N35L/T59K/E61R,3.62,1 of 3,2 of 9
K24M/Y31Q/Y97C,1.45,3 of 3,3 of 9
L30M/N35L/Y97L,1.10,3 of 3,2 of 9
S26N/N35W/N37I,nd,0 of 3,0 of 9
Y31S/Q96A/P101I,0.63,3 of 3,2 of 9
K36G/A40N/A57R,nd,0 of 3,0 of 9
T59I/R60Q/S62H,nd,0 of 3,0 of 9
S25V/S33P/R34E,1.39,3 of 3,3 of 9
R34H/R60D/L100V,4.93,1 of 3,3 of 9
E32H/A57K/P101M,nd,0 of 3,0 of 9
V29A/S38W/Q96L,3.50,1 of 3,2 of 9
V39M/E61F/L102G,nd,0 of 3,0 of 9
R34H/R60P/E61K,nd,0 of 3,0 of 9
S28K/S58D/Y97G,nd,0 of 3,1 of 9
R34T/S58A/S103C,nd,0 of 3,1 of 9
S28A/Q95Y/S103C,1.15,3 of 3,2 of 9
R34F/N37T/E61W,3.17,3 of 3,4 of 9
L30G/S33R/T59G,4.46,3 of 3,3 of 9
W56R/H98R/R99A,1.02,3 of 3,1 of 9
S33G/N37W/Y97E,nd,0 of 3,0 of 9
S26N/N35R/S103M,3.16,3 of 3,3 of 9
S26K/V29A/A57C,1.50,3 of 3,1 of 9
S58D/H98V/L102Y,3.60,1 of 3,3 of 9
S26Q/T59R,1.30,3 of 3,2 of 9
W56H/A57G/S62R,0.56,3 of 3,2 of 9
V39Y/S58N/R99C,nd,0 of 3,0 of 9
S58Y/E61W/Q96L,nd,0 of 3,1 of 9
S25L/S62K,-0.09,3 of 3,3 of 9
N37G/W56K/L100T,1.86,3 of 3,2 of 9
N37Y/V39Q/S103M,3.69,1 of 3,2 of 9
R60A/E61C/L102E,nd,0 of 3,0 of 9
S62Q/P101V,1.06,3 of 3,0 of 9
K24N/S33D/N37F,1.20,3 of 3,1 of 9
V39D/E61K,3.84,2 of 3,0 of 9
N35C/T59P/Q95V,5.85,1 of 3,2 of 9
S25H/R34T/R60N,5.54,1 of 3,2 of 9
K36V/S38Q/A40N,4.37,1 of 3,4 of 9
V29D/V39R/T59V,4.80,2 of 3,9 of 9
Q27C/S58V/E61I,3.97,3 of 3,1 of 9
W56H/A57P/E61S,4.47,2 of 3,3 of 9
S28H/K36Q/S62N,nd,0 of 3,0 of 9
R34Q/S38I/E61Q,nd,0 of 3,0 of 9
S26L/A57W,4.21,2 of 3,4 of 9
V39R/T59S/Q96W,nd,0 of 3,1 of 9
L30V/S33G/S103P,nd,0 of 3,1 of 9
E32R/S33A,nd,0 of 3,0 of 9
Y31H/S33T/P101D,nd,0 of 3,0 of 9
Q27M/L30G/L102C,4.69,2 of 3,1 of 9
S26R/S58D/L100C,3.46,1 of 3,1 of 9
V29C/R34A/Q95W,0.82,3 of 3,3 of 9
R60W/Q95S/Q96I,nd,0 of 3,2 of 9
E32D/Y97W/L100H,2.37,3 of 3,1 of 9
N37S/A40F/E61C,4.83,1 of 3,2 of 9
S33C/S58T/S62D,0.46,3 of 3,0 of 9
W56I/S58V/R60M,4.98,1 of 3,3 of 9
A40L/Q96N/P101H,nd,0 of 3,0 of 9
N37H/W56H/Q95W,5.18,2 of 3,4 of 9
V29W/T59Q/H98K,0.77,3 of 3,2 of 9
N37F/A40H,4.94,2 of 3,2 of 9
Y31R/E32W/N35R,4.24,2 of 3,2 of 9
K24N/T59A/Y97L,5.32,3 of 3,8 of 9
K36V/H98F,1.09,3 of 3,1 of 9
A40C/E61C,2.83,2 of 3,0 of 9
W56V/L100Q,nd,0 of 3,0 of 9
S25Y/V29P/H98K,0.80,3 of 3,1 of 9
N35D/V39G,nd,0 of 3,0 of 9
A40D/W56S/Q95H,3.54,1 of 3,3 of 9
S28H/N37Y/L102R,nd,0 of 3,0 of 9
T59M/L100W,nd,0 of 3,0 of 9
S33N/S38C/V39N,4.15,1 of 3,5 of 9
S25L/Q96S/Y97N,3.46,2 of 3,0 of 9
S26V/S33W/E61V,1.44,3 of 3,0 of 9
W56A/R99H/S103E,0.15,3 of 3,0 of 9

The first 8 variants above that were never detected:

changes,mean log10 Kd (nM),detected,signal with controls
Y31Q/P101N/L102C,nd,0 of 3,1 of 9
Q27P/E32R/V39K,nd,0 of 3,0 of 9
S26N/N35W/N37I,nd,0 of 3,0 of 9
K36G/A40N/A57R,nd,0 of 3,0 of 9
T59I/R60Q/S62H,nd,0 of 3,0 of 9
E32H/A57K/P101M,nd,0 of 3,0 of 9
V39M/E61F/L102G,nd,0 of 3,0 of 9
R34H/R60P/E61K,nd,0 of 3,0 of 9

For reference, the parent read 0.65 as the reference entry and 1.68 as a member of this library.
Empty control strains, which show no peptide, gave a signal in 18% of pairings with library AAYL50; the median was 4.19 and 95% of these signals were weaker than 2.99. No background was subtracted. Also given: how often the same scFv was detected with the empty control strains.

From the AlphaSeq antibody data of Engelhart et al. 2022 (doi:10.1038/s41597-022-01779-4), copy in the FLAb collection.